This note sets out measurements from patent US11447533B2, “Antimicrobial and anticancer peptides and conjugates and compositions, methods, articles and kits relating thereto” (George Mason Research Foundation, Inc., priority 2018, dated 2022).

The test system of one series is E. coli ATCC 25922. The experiment in a line: Antimicrobial efficacy (resazurin virtual colony count). The class given is cell-based, Escherichia coli. The settings on record: DPBS + 4% (w/v) bovine serum albumin versus DPBS. How it is done:
Antimicrobial Studies. The phosphate buffers used for antimicrobial assays were supplemented with non-nitrogenous energy source, 0.1% (w/v) glucose. To conduct antimicrobial assays, bacterial strains were first suspended in respective buffers. E. coli (ATCC 25922) and B. cereus (ATCC 11778) were grown in MHB II up to OD600 nm˜1 and stored as frozen stock in 20% glycerol at −80° C. Occasionally they were thawed and enumerated by serial dilution and spreading on MHB II agar plates. The concentrations of the frozen stocks of E. coli and B. cereus strains were 1.0-1.1*10^8 CFU/mL with OD600 nm˜0.8. […]
Antimicrobial assays in different phosphate buffers and serum were conducted by adapting, with necessary modifications a fast high-throughput method based on Virtual Colony Count technique and later modified by incorporating the use of resazurin. At first serial dilution of a microbial strain in respective buffer was poured in the wells of 96 well polypropylene microplate and was then added with same volume of 2× MHB II supplemented with 80 μg/mL resazurin and incubated at 35° C. in a Gemini EM Microplate Reader (Molecular Devices) overnight with intermittent shaking. As the microbe grows it reduces non-fluorescent resazurin to fluorescent resorufin and the fluorescent intensity of each well were measured (excitation=570 nm, emission=590 nm) each 5 min for 15 hours. […]

The test system of series [1] is H-358 lung epithelial cancer cells. The experiment in a line: Cytotoxicity (Alamar blue). The class given is cell-based, human. The note with it: ~6 hours, 10% fetal bovine serum. How it is done: FIG. 12 is a graph showing comparison of toxicities against Lung Primary Epithelial cells and Lung Cancerous Epithelial Cells, derived from H358 cell-line. Non-linear regression analysis of six-hour cytotoxicity data was performed to identify the concentration to achieve 50% lethality (LD50) for each toxic peptide. Each peptide was tested in triplicate.
Cytotoxicity. Cells were seeded in complete growth medium (Minimal Essential Medium, MEMα, supplemented with 10% Fetal Bovine Serum) into a culture-treated 96-well plate at a density of 25000 cells per well. After 24 hours, culture media was aspirated and replaced with media containing the selected peptide. No-serum experiments were conducted in Opti-MEM I reduced serum media (ThermoFisher, 31985062) and 10% serum experiments were performed in complete growth medium. In all cases, DBPS was used as a vehicle only control and buffer to serially dilute the peptides. After exposure to the peptides or vehicle-alone for the defined period, Alamar blue dye (resazurin) was added directly to the media and allowed to incubate for two hours. Following incubation, A570/A600 measurements were made to calculate reduction of resazurin dye to resorufin. A ratio of reduction in treated versus untreated cells was calculated in order to determine overall cell viability. The human cells were always maintained in a 37° C. incubator under 5% CO2. […]

Series [2] is described as follows: Cytotoxicity (Alamar blue). The settings on record: human, primary lung epithelium cells; ~16 hours (overnight), reduced serum conditions; read-out: concentration decreasing resazurin reduction by 50% (LD50). The class given is cell-based. The protocol:
FIGS. 11A-11B are graphs showing cytotoxicity against primary lung epithelium cells in serum-free condition. Cells were seeded in complete growth medium (Minimal essential medium supplemented with 10% fetal bovine serum) at near-confluence into a 96-well plate and allowed to settle for 24-hours. Media was then replaced to OptiMEM I reduced serum medium containing peptide or vehicle alone (DBPS) and cells were incubated overnight (16 hours). A resazurin based dye (Alamar blue) was added directly to media and conversion of resazurin to resorufin was evaluated following two hours. % Survival represents the proportion of viable cells in peptide treated cells relative to cells treated with vehicle alone. […] Each peptide was tested in triplicate.
FIG. 12 is a graph showing comparison of toxicities against Lung Primary Epithelial cells and Lung Cancerous Epithelial Cells, derived from H358 cell-line. […] Each peptide was tested in triplicate.
Cytotoxicity. Cells were seeded in complete growth medium (Minimal Essential Medium, MEMα, supplemented with 10% Fetal Bovine Serum) into a culture-treated 96-well plate at a density of 25000 cells per well. After 24 hours, culture media was aspirated and replaced with media containing the selected peptide. […] A ratio of reduction in treated versus untreated cells was calculated in order to determine overall cell viability. […]

In the case of `CC[C@H](C)[C@H](NC(=O)[C@@H](NC(=O)[C@H](CCCCN)NC(=O)[C@@H]1CCCN1C(=O)[C@H](CCCCN)NC(=O)[C@H](CCCCN)NC(=O)[C@H](Cc1ccccc1)NC(=O)[C@H](Cc1ccccc1)NC(=O)[C@H](CCCCN)NC(=O)[C@H](CCCCN)NC(=O)[C@H](C)NC(=O)[C@H](CCCNC(=N)N)NC(=O)[C@H](CCCCN)NC(=O)[C@H](CCCCN)NC(=O)[C@@H](NC(=O)[C@H](CO)NC(=O)[C@H](CC(N)=O)NC(=O)[C@H](CCCCN)NC(=O)[C@H](CC(C)C)NC(=O)[C@H](CCCCN)NC(=O)[C@H](CCCCN)NC(=O)[C@H](Cc1ccccc1)NC(=O)[C@H](Cc1ccccc1)NC(=O)[C@H](CCCCN)NC(=O)[C@H](CCCCN)NC(=O)[C@H](Cc1ccccc1)NC(=O)[C@H](CCCNC(=N)N)NC(=O)[C@@H](N)CCCCN)C(C)C)C(C)C)C(=O)NCC(=O)N[C@H](C(=O)N[C@H](C(=O)N[C@@H](Cc1ccccc1)C(=O)N1CCC[C@H]1C(=O)N[C@@H](Cc1ccccc1)C(=O)O)[C@@H](C)O)C(C)C` [NA-CATH, reference compound], the “increase of EC50 in presence of albumin relative to EC50 in DPBS” value in the series with E. coli ATCC 25922 is recorded as “did not demonstrate significant changes in EC50 values”. This molecule showed an LD50 in series [1] of around 10.5 µM. For the same molecule, the CC50 at 16 h in series [2] was around 25 µM.
